Only a part is listed here, and it is no random draw. Activity calls are given as the source filed them.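 How the source made its calls: active means inhibition reaching a set limit with compound at 10 µM in the primary screen (cut at about 35% in these data); inactive means the rest.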

Sequences of proteins named here, by UniProt entry; tags and fusion partners are left off. A change or cut given only in a name is not applied to a line headed by its entry.
UniProt P09923: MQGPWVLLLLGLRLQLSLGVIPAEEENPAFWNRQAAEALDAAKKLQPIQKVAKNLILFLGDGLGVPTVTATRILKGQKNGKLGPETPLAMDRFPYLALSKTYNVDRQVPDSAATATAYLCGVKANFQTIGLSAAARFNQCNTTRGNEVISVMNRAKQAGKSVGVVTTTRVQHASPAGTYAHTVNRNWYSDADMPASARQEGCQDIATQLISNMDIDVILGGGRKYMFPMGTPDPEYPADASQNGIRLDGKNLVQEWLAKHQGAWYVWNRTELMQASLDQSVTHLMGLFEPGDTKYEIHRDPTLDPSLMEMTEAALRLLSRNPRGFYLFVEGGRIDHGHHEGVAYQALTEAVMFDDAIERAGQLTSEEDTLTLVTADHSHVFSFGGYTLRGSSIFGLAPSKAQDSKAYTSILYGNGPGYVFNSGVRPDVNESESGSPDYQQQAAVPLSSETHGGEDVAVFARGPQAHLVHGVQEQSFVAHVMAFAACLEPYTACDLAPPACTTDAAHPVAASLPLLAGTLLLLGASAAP

What is called inhibition is the drop in the measured response relative to a control, in per cent.

The assay deals with Intestinal-type alkaline phosphatase (Homo sapiens) (UniProt P09923). Kind of assay: blockers of intestinal alkaline phosphatase activity – biochemical, luminescence, uHTS, primary screen (AID 2544).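 Further: plate controls were DMSO wells with enzyme for no effect and no-enzyme buffer wells for full effect.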 Conditions: purified IAP, CDP-Star luminescence, 30 min; at 10 µM; stronger effect = higher value.
As for `CCOP(=O)(NC(=NC(C)c1ccccc1)NC(C)c1ccccc1)OCC` (centres undefined), the inhibition was inactive: -9.2%.

`Clc1n[nH]nc1-c1nn[nH][15n]1`: the inhibition was inactive: 3.6%.

Turning to `CC(C)(C)C(=O)NC(Sc1ncccn1)C(Cl)(Cl)Cl` (centres undefined), the inhibition was inactive: 0.8%.

On to `COc1ccccc1CNC(=O)COC(=O)C(O)(c1ccccc1)c1ccccc1`, for which the inhibition was inactive: 7.8%.

As to `O=[As](O)(c1ccccc1Br)c1ccccc1Br`, the inhibition is inactive: -15.9%.

With `CC1(CBr)Cn2c(nc3ccccc3c2=O)S1` (centres undefined), the inhibition is inactive: 3.4%.

In the case of `CC(C)/C=N\N=C(\N)N[N+](=O)[O-]`, the inhibition was inactive: 12.1%.

For the compound `CN(C(=O)Cc1ccc(Cl)c(Cl)c1)[C@@H]1CCCC[C@H]1N1CCCC1`, the inhibition is inactive: -6.6%.

On to `Cc1nn(-c2ccccc2)c2c1P(=O)(N1CCOCC1)N(C)C(c1ccccc1)=N2` (centres undefined), for which the inhibition is inactive: -1.2%.

Take `CC1CCC(C(C)C)C(OP(=O)(Nc2ccccn2)c2ccccc2)C1` (centres undefined): the inhibition is inactive: 5.2%.

For the compound `Cc1ccc(C(=O)OC2CN3CCC2CC3)cc1` (centres undefined), the inhibition was inactive: 8.3%.

For the compound `O=C(/C=C/c1ccccc1)OC1CN2CCC1CC2` (centres undefined), the inhibition is inactive: 4%.

As for `CN(C)C1(CNC(=O)c2ccc(S(C)(=O)=O)cc2)CCCCC1`, the inhibition was inactive: -8.2%.

As to `O=P1(Nc2ncccn2)COc2ccccc2OC1`, the inhibition is inactive: 6.1%.

`O=P1(Nc2ccc(Br)cn2)COc2ccccc2OC1`: the inhibition was inactive: -10.7%.

As for `NS(=O)(=O)c1cccc(NC(=O)COC(=O)C(O)(c2ccccc2)c2ccccc2)c1`, the inhibition is inactive: -8.8%.

As to `O=[As](O)(c1cccs1)c1cccs1`, the inhibition is inactive: -3.9%.

For the compound `Cc1ccc(OCC(=O)OC2CN3CCC2CC3)cc1` (centres undefined), the inhibition was inactive: -9.4%.

For `Nc1cccc([As](=O)(O)c2ccccc2)c1`, the inhibition was inactive: -12.1%.

As for `CCOC(=O)Nc1ccc([As](=O)(O)O)c(O)c1`, the inhibition was inactive: -5.7%.

For `CCCCOc1ccc(C(=O)NCC2(N3CCCCC3)CCCCC2)cc1OC`, the inhibition was inactive: -12.2%.

Turning to `Cc1cc(SC(NC(=O)c2ccccc2)C(Cl)(Cl)Cl)nc(C(C)C)n1` (centres undefined), the inhibition was inactive: 1.7%.

As to `CCOC(=O)Nc1cccc([As](=O)(O)O)c1`, the inhibition was inactive: -0.9%.

As for `O=P(Nc1ccccn1)(c1cccc2ccccc12)c1cccc2ccccc12`, the inhibition was inactive: 5%.

As to `Cc1cc(SC(NC=O)C(Cl)(Cl)Cl)ncn1` (centres undefined), the inhibition is inactive: -22.3%.

As to `COP1(=S)c2c(C)nn(CCC#N)c2N=C(c2ccc(F)cc2)N1C` (centres undefined), the inhibition is inactive: 4.9%.

For `O=C(COc1ccccc1)OC1CN2CCC1CC2` (centres undefined), the inhibition is inactive: -13.4%.

In the case of `O=C(Nc1ccncc1[N+](=O)[O-])c1ccc([N+](=O)[O-])cc1[N+](=O)[O-]`, the inhibition was inactive: -11.9%.

For the compound `CCOC(=O)c1ccc(NC(=O)C(C)(CCl)SC)cc1` (centres undefined), the inhibition was inactive: 0.1%.

With `O=C(OC1CN2CCC1CC2)c1cccc([N+](=O)[O-])c1` (centres undefined), the inhibition was inactive: 4.7%.

As to `CCC(C)N(CC(C)C)C(=S)SC(NC(C)=O)C(Cl)(Cl)Cl` (centres undefined), the inhibition was inactive: -8.8%.

Take `O=C(OC1CN2CCC1CC2)C12CC3CC(CC(C3)C1)C2` (centres undefined): the inhibition is inactive: 7.9%.

As for `Cc1cc(=O)[nH]c(N[N+](=O)[O-])n1`, the inhibition was inactive: -6.3%.

In the case of `Cc1c2c(nc3ccccc13)SC(C(Cl)Cl)C2` (centres undefined), the inhibition is inactive: 8.5%.

Take `COc1ccc2nc(NP(=O)(c3ccccc3)c3ccccc3)sc2c1`: the inhibition is inactive: -9.2%.

Turning to `COc1cc(I)ccc1[As](=O)(O)O`, the inhibition is inactive: 11.5%.

As for `COc1ccc(N/C(=N/P(=O)(N2CCOCC2)N2CCOCC2)N2CCOCC2)cc1`, the inhibition was inactive: 3.2%.

As for `O=[As](O)(c1ccc(O)cc1)c1ccccc1O`, the inhibition is inactive: -12.1%.

For the compound `C[As](=O)(O)c1cccc(C(=O)O)c1`, the inhibition was inactive: -2.5%.

Turning to `COc1cc(C(=O)NCC2(N3CCOCC3)CCCCC2)ccc1OCC(C)C`, the inhibition was inactive: -11.7%.

Consider `Cc1ccc2nc3c(c(C)c2c1)CC(C(Cl)Cl)S3` (centres undefined), for which the inhibition was inactive: 10.5%.

On to `Cc1ccc(OP(=O)(Nc2ccc([N+](=O)[O-])cn2)Oc2ccc(C)cc2)cc1`, for which the inhibition was inactive: -4.3%.

On to `CC(C)c1ccc(OP(=O)(Nc2ccccn2)Oc2ccccc2F)cc1` (centres undefined), for which the inhibition is inactive: 9.1%.

In the case of `ClCCSc1nnc(-c2cccnc2)o1`, the inhibition is inactive: 11.7%.

As to `O=C(OC1CN2CCC1CC2)c1cccc2[nH]cnc12` (centres undefined), the inhibition was inactive: -26.7%.

As for `CCN(CC)C(=S)SC(NC=O)C(Cl)(Cl)Cl` (centres undefined), the inhibition is inactive: -16.7%.

Take `CC(C)NC(=O)NP(=O)(Oc1ccccc1)Oc1ccccc1`: the inhibition was inactive: -2.2%.

For the compound `O=[N+]([O-])c1cc([N+](=O)[O-])c(-c2ccn[nH]2)s1`, the inhibition was inactive: 11%.

`O=C(O)c1ccccc1[As](=O)(O)O`: the inhibition was inactive: 2.8%.

Regarding `CC(=O)Nc1ccc([As](=O)(O)O)cc1`, the inhibition is inactive: 10.8%.

As to `O=P(Nc1nc2ccc(Cl)cc2s1)(c1ccccc1)c1ccccc1`, the inhibition is inactive: -21.4%.

For `CCOP(=O)(Nc1ccccc1)OCC`, the inhibition was inactive: -5.7%.

With `Cc1cc(SC(NC(=O)c2ccc(F)cc2)C(Cl)(Cl)Cl)ncn1` (centres undefined), the inhibition was inactive: 9%.

As for `Cc1ccc(NP(=O)(Oc2ccccc2F)Oc2ccccc2F)nc1`, the inhibition was inactive: 8.5%.

Consider `CN(C(=O)Cc1ccc(Cl)c(Cl)c1)[C@H]1CCCC[C@@H]1N1CCCC1`, for which the inhibition was inactive: -2.5%.

As for `O=[N+]([O-])c1cc([N+](=O)[O-])c(CCN2CCOCC2)c([N+](=O)[O-])c1`, the inhibition is inactive: 21.1%.

With `CCN(N=Nc1nonc1N)c1nonc1N`, the inhibition is inactive: 2.2%.

With `NC(=O)c1cc([N+](=O)[O-])cc([N+](=O)[O-])c1N`, the inhibition was inactive: -7.7%.

Take `CN(C(=O)Cc1ccc(Cl)c(Cl)c1)[C@H]1CCCC[C@H]1N1CCCC1`: the inhibition is inactive: 7.8%.

For the origin of these results see PubChem BioAssay AID2544 (Sanford-Burnham Center for Chemical Genomics, 2010).
